Data taken from patent publication US5852014A, “Condensed indole derivatives as 5HT4 -receptor antagonists” (SmithKline Beecham p.l.c., priority 1992, dated 1998).

Amino acid sequences for entries named in this document (tags omitted). A change or cut given only in a name is not applied to a line headed by its entry.
UniProt Q62758: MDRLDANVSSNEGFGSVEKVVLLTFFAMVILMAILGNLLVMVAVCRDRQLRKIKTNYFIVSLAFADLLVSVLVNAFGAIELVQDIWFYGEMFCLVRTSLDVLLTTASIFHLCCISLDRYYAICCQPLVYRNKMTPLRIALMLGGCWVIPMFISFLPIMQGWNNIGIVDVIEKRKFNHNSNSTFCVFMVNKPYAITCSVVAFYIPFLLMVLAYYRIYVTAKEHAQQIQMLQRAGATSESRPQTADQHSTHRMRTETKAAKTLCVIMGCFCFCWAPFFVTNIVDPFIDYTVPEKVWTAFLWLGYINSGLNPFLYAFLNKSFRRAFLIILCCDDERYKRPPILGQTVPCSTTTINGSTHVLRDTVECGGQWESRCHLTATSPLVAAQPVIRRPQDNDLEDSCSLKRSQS

Legend:
anxiolytic activity = assay: Social interaction test in rats; type: in vivo, rat; conditions: vs chlordiazepoxide 5 mg.kg^-1 po
Description: IN VIVO TESTING FOR ANXIOLYTIC ACTIVITY
Social Interaction Test in Rats
Rats (male, Sprague Dawleys, Charles River, 250-300 g) are housed in groups of eight in a holding room for 5 days. They are then housed singly in a room adjacent to the experimental room for 4 days prior to the experimental day. On the experimental day rats are administered vehicle, test compound or a benzodiazepine anxiolytic, chlordiazepoxide, p.o. in pairs (n=8-16), at 15 minute intervals beginning at 10.00 a.m. […] The box is made of white perspex 54 cm×37 cm×26 cm with a transparent perspex front side and no lid. The floor is divided up into 24 squares and the box is brightly lit (115 lux). Active social interactive behaviours (grooming, sniffing, climbing over or under, following, biting, mounting and boxing) are scored blind for the next 15 min by remote video monitoring to give total interaction scores. The number of squares crossed by each rat is also scored and summed. After the end of each test the box is carefully wiped.

[1] = tested on: 5-HT4 receptor over the other receptors tested
5-HT4 receptor = biological target: T1, 5-HT4 receptor (Rattus norvegicus, UniProt Q62758); assay: Rat oesophagus: relaxation of carbachol-contracted tunica muscularis mucosae; conditions: n=18
T1 construct: The inner smooth muscle tube of the muscularis mucosae is isolated; from tissue; host or cells: rat oesophageal tunica muscularis mucosae
Text: Rat oesophageal tunica muscularis mucosae is set up according to Baxter et. al. Naunyn-Schmiedeberg's Arch. Pharmacol., 343, 439-446 (1991). […] In contrast to the guinea-pig colon model, where the 5-HT4 receptor is neuronally-located, the receptor here is located on the smooth muscle.

Compound | magnitude of effect relative to chlordiazepoxide (anxiolytic activity) | selectivity for the 5-HT4 receptor over the other receptors tested [1] | pEC50 (relaxation) (5-HT4 receptor)
CCCCN1CCC(CNC(=O)c2c3n(c4ccccc24)CCCO3)CC1 [SB-207266-A, N-[(1-^n Butyl-4-piperidyl)methyl]-3,4-dihydro-2 H-[1,3]oxazino[3,2-a]indole-10-Carboxamide] | somewhat smaller than that of the positive control chlordiazepoxide (CDP; 5 mg.kg^-1 po) but not significantly so | several orders of magnitude | 
NCCc1c[nH]c2ccc(O)cc12 [5-HT, 5-hydroxytryptamine, reference compound] |  |  | 8.1±0.03
